Data set [1] in a line: Chemical stability in phosphate buffer assessed as half life at pH 7.4 at 22 degC. It counts as physicochemical.
A short description of data set [2]: Solubility in PBS. It is filed as physicochemical. The conditions noted are these: buffer.

Consider 3 compounds from ChEMBL document CHEMBL1154676, “Synthetic mRNA splicing modulator compounds with in vivo antitumor activity” (J Med Chem, 2009).

What is called solubility is how much of the substance goes into solution per volume. Read a high solubility as a readily soluble substance.

Converted amounts (≈) assume the structure as drawn. Some results are limits rather than exact numbers.

As for `CC(=O)O[C@@H](C)/C=C\C(=O)N[C@H]1CC[C@@H](C/C=C(C)/C=C/[C@@H]2C[C@]3(CO3)CC(C)(C)O2)CC1`, the t1/2 in data set [1] came to 50 days.

In the case of `CC(/C=C/[C@@H]1C[C@]2(CO2)CC(C)(C)O1)=C\C[C@H]1CC[C@@H](NC(=O)/C=C\[C@H](C)OC(=O)C(C)C)CC1`, the t1/2 in data set [1] worked out at 50 days. Besides, the solubility in data set [2] was less than 1 µM. As for `CC(/C=C/[C@@H]1C[C@]2(CO2)CC(C)(C)O1)=C\C[C@H]1OC[C@@H](NC(=O)/C=C\[C@H](C)OC(=O)C(C)C)CO1`, the solubility in data set [2] was found to be 47 µM (≈ 23.1 µg/mL).
